From patent US20260382635A1, “NITROSYL-HEME FORMULATIONS FOR THE TREATMENT OF CARDIOVASCULAR CONDITIONS, HEMOLYSIS, AND THE STABILIZATION OF CELL-FREE HEME MOLECULES” (published 2026)

What was measured:
[1] = Kinetics of reductive nitrosylation of ferric heme in MeOH:PBS buffer (UV-Vis/stopped-flow)
Method: All individual spectra and pseudo-first-order kinetics were performed using a thermostatted (23/37 °C±0.2) Cary 50, Cary 100, or HP8453 UV-Visible spectrophotometer (Agilent Technologies) running either Cary WinUV Scan (v 5.23.1042, Agilent Technologies), Cary WinUV Scanning Kinetics (v3.00(183), Agilent Technologies), or UV-Visible ChemStation (vB.04.01 [61], Agilent Technologies) for reactions ferric heme reactions with NO and without glutathione in PBS and MeOH/PBS buffer (1 part PBS in 5 parts methanol) unless otherwise noted. For pseudo-first-order reactions with fast observed rates such as the ferric heme reaction with NO and reduced glutathione, a thermostatted SX-20 stopped-flow instrumented fitted with a direct mount photodiode array (Applied Photophysics, Ltd.) in an anaerobic chamber was used. Stopped-flow data were collected using Pro-Data SX (v2.5.1852.0, Applied Photophysics). Samples were prepared either in a glove box under nitrogen atmosphere or using a Schlenk line under argon atmosphere with oxygen-free buffers and solvents.
Hemin stock (5 mM) was prepared regularly in 20 mN anaerobic NaOH solution, sealed in a septum capped vial. The concentration of hemin was precisely determined by absorption spectroscopy using the extinction coefficient at 385 nm of 58.4 mM^−1 cm^−1.^78 Reduced glutathione stocks (25-100 mM) were made regularly in deaerated PBS and sealed in septum capped vials. Methanol was deaerated separated before mixing in a 5:1 ratio with deaerated PBS to make MeOH:PBS buffer for spectroscopy experiments. The precise concentration of NO from bubbling or from ProliNONOate was determined either by titrating with excess oxyhemoglobin and calculating the amount of methemoglobin produced by fitting absorption spectra to normalized basis spectra or using an ozone-based chemiluminescent analyzer. Stock concentrations of ProliNONOate were also verified through absorption spectroscopy, using the extinction coefficient at 248 nm of 8.4 mM^−1 cm^−1.^79 A sample stopped-flow experiment was performed as follows: 25 μM hemin and 250 µM hemin were loaded into one syringe, and a range of NO concentrations between 125 μM and 2.5 mM were loaded in the other syringe and the syringe contents were mixed 1:1 in the stoppled flow. For radical trapping experiments, the above reaction conditions were replicated plus the addition of 50 mM DMPO in deaerated MeOH:PBS solution.
A 5:1 mixture of methanol to phosphate buffered saline (PBS, pH 7.4)—herein referred to as the MeOH:PBS buffer—was used to solubilize free heme at concentrations amenable to UV-visible spectroscopic characterization. […]
Addition of 125 μM GSH with 12.5 μM ferric heme and only 125 μM NO results in rapid formation a product with the same spectroscopic signature, indicating NO-ferroheme formation (FIG. 1B, note markedly different time scale from FIG. 1A). […] The GSH-facilitated product lacks the characteristic dithionite absorbance at 315 nm.
Varying the concentrations of NO or GSH under pseudo first-order conditions allows for determination of the reaction dependence on GSH and NO, yielding calculated second-order rate constants of 7000 M^−1s^−1 and 2300 M^−1s^−1, respectively (FIG. 1F).

[2] = system: platelets; assay: Platelet activation in platelet-rich plasma (flow cytometry)
Method: Samples were prepared using heme (25 μM), NO (20 μM), albumin (75 μM) with and without GSH (250 μM) under normoxic or anoxic conditions. Fresh blood was drawn into sodium citrate tubes with the first tube being discarded and platelet rich plasma (PRP) collected after sedimentation of the red blood cells. Platelet activation was measured as described previously.^82 First, PRP was diluted 1:7 with oxygenated or deoxygenated PBS buffer, then albumin samples were mixed with this diluted PRP in 1:10 ratio. After 5 minutes of incubation at 37 °C, 2 μM ADP was added to all test samples except negative vehicle controls, followed by 10 additional minutes incubation. 20 μL of each sample was subsequently added to PAC-1 FITC (BD™ FITC Mouse Anti-Human PAC-1, 25 μg/mL (1 mL); catalog no. 340507; clone PAC-1 RUO (GMP))—which labels activated platelets—and CD61 (BD™ PerCP Mouse Anti-Human CD61, 3 g/mL (1 mL); catalog no. 340506; clone RUU-PL7F12 RUO (GMP))—which labels all platelets- and incubated at room temperature in the dark for 20 minutes and then fixed in 1% buffered formaldehyde. Platelets were sorted using a BD FACSCalibur Analyzer. Data were collected and analyzed using BD CellQuest Pro (v6.0). Gating strategy was based on side and forward scattering compared to red blood cells and then also for activated platelets. Platelets were labelled along the x-axis and activation on the y-axis. Activation was taken as the upper right quadrant divided by the sum of the two right quadrants (FIG. 14).
GSNO can inhibit platelets in vitro.^59,60 As GSNO is generated by the reaction, an alternate method to was employed to generate NO-ferroheme without GSNO by first reducing hemin with 1.6 fold excess sodium dithionite and then adding an equivalent of NO to the pre-formed ferrous heme at a final concentration of 2 μM (FIG. 4B). […] Finally, to establish that sGC is activated with NO-ferroheme in platelets, cGMP was detected with and without ODQ, a sGC inhibitor, and tadalafil, a phosphodiesterase (PDE) inhibitor (FIG. 4C). cGMP is increased with NO-ferroheme treatment vs controls (FIG. 4C, solid hexagons, p=0.0177), consistent with sGC activation and cGMP-dependent signaling.

Row | SMILES | observed 2nd-order rate constant (NO dependence) ([1]; role: substrate, NO varied, [GSH] 250 μM, ferric heme, MeOH:PBS, 23 °C, anaerobic) [M⁻¹ s⁻¹] | platelet activation, effect in words ([2]; NO alone 2 μM, 2 μM ADP) | t1/2 of NO-ferroheme formation ([1]; role: product, 1250 μM NO, 12.5 μM ferric heme, no GSH, anaerobic, 23 °C) [min] | increase in kobs of NO-ferroheme formation on addition of a reduced thiol ([1]; role: product, tenfold less NO, otherwise analogous conditions) | platelet activation, effect in words ([2]; ferrous heme in the absence of NO, 2 μM ADP (FIG. 4B)) | platelet inhibition, thiol-catalyzed vs dithionite-generated NO-ferroheme ([2]; thiol-catalyzed vs dithionite-generated without glutathione)
1 | [N]=O | 2300 | inhibited platelet activation |  |  |  | 
2 | C=CC1=C(C)c2cc3[nH]c(cc4nc(cc5[nH]c(cc1n2)c(C)c5CCC(=O)O)C(CCC(=O)O)=C4C)c(C)c3C=C.[Fe+2] |  |  | 5.67 | more than 500 fold | did not inhibit platelet activation; in fact, this species slightly augmented activation | equally effective inhibitors
